This passage reports activation results from PubChem BioAssay AID1671463 (Sanford-Burnham Center for Chemical Genomics, 2021).

Protein sequences, listed by entry. Tags and fused reporters are not part of them. Lines headed by an entry give the natural chain unless they say otherwise; changes in a name come on top.
UniProt P16066: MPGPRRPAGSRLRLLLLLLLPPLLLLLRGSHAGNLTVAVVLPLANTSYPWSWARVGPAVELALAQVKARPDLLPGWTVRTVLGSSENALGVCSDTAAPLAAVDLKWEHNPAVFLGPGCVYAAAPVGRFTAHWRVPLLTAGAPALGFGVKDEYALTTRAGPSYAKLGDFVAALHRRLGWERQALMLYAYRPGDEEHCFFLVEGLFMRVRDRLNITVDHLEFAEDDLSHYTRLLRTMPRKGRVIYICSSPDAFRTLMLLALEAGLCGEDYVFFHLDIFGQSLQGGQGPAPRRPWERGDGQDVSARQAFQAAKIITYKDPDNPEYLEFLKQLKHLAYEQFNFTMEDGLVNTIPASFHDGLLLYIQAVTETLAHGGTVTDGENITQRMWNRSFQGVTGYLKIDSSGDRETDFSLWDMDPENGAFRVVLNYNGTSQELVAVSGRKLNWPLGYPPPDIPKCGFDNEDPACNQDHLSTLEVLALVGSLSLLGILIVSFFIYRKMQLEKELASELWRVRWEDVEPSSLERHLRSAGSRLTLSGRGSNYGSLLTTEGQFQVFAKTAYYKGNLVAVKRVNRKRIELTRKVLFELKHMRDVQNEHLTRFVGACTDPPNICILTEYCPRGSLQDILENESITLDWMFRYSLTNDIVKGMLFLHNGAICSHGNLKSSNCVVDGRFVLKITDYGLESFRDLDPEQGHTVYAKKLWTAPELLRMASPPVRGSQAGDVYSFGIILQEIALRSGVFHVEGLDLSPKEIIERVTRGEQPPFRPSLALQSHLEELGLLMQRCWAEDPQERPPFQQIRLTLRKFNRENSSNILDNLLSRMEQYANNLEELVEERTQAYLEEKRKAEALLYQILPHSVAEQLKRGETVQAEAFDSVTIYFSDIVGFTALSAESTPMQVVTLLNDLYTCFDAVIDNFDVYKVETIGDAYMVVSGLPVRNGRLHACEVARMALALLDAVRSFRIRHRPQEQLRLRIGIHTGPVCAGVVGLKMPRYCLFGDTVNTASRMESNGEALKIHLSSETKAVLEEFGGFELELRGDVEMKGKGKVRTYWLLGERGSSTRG

This is a selection; strong and weak results do not stand in their true shares. Active and inactive are the calls of the source. Cut-off read from the data, not from the text of the source: active = activation above about 40%; inactive = the rest.

The experiment addresses Atrial natriuretic peptide receptor 1 (Homo sapiens) (UniProt P16066). The experiment is described as follows: GC-A stimulated cGMP production enhancers – HEK293 GC-A cells, cGMP TR-FRET, EC30 ANP, primary screen (AID 1671463). Conditions: at 10 µM, active compounds read high, 0% at EC30 ANP, 100% saturating ANP.
On to `Clc1ccc(Cl)c(NC2=NCC(CBr)S2)c1` (configuration not stated), for which the activation is inactive: 9.57%. With `CN1CCCC(OC(=O)C(c2ccccc2)c2ccccc2)C1` (configuration not stated) the figure was inactive: -5.42%; with `COc1ccccc1OP(=O)(Nc1ccc(C)cn1)Oc1ccccc1OC`, inactive: -5.56%; with `Cc1ccc(OP(=O)(Nc2nccs2)Oc2ccc(C)cc2)cc1`, inactive: 1.04%. With `CN(C(=O)Cc1ccc(Cl)c(Cl)c1)[C@H]1CCCC[C@H]1N1CCCC1` the figure was inactive: -8.85%.

As to `Cc1ccc(N/C(=N/P(=O)(N2CCOCC2)N2CCOCC2)N2CCOCC2)cc1`, the activation is inactive: -3.17%.

Consider `NC(=O)c1cc([N+](=O)[O-])cc([N+](=O)[O-])c1N`, for which the activation is inactive: 1.65%. The same measure for `Oc1ccccc1CNc1ccccn1`: inactive: 0.36%. In the case of `O=C(NC(Sc1ccncn1)C(Cl)(Cl)Cl)c1ccccc1` (configuration not stated), the activation was inactive: 2.61%.

For `CC(C)CC(=O)NC(Sc1ccc(Cl)cc1)C(Cl)(Cl)Cl` (configuration not stated), the activation is inactive: -1.79%. `Nc1cc(N)c2nonc2c1[N+](=O)[O-]`: the activation was inactive: -2.37%. The same measure for `CCn1c(=O)n(C2CCN(CC3CCCCCCC3)C[C@H]2CO)c2ccccc21` (some centres not stated): inactive: 0.17%. With `CCOP(=O)(Nc1ccccc1)OCC` the figure was inactive: 0.28%; with `Cc1cc(SC(NC(=O)c2ccc(F)cc2)C(Cl)(Cl)Cl)ncn1` (configuration not stated), inactive: 1.3%; with `CN(C(=O)Cc1ccc(Cl)c(Cl)c1)[C@H]1CCCC[C@@H]1N1CCCC1`, inactive: -5.75%. The same measure for `Cc1ccc(NP(=O)(Oc2ccccc2F)Oc2ccccc2F)nc1`: inactive: -2.11%. In the case of `CN(C)P(=O)(N(C)C)n1c(Nc2ccccc2)nnc1-c1ccccc1`, the activation was inactive: -6.19%. Take `O=P(Nc1nc2ccc(Cl)cc2s1)(c1ccccc1)c1ccccc1`: the activation was inactive: -0.9%. The same measure for `O=C(O)c1ccccc1[As](=O)(O)O`: inactive: 3.59%; for `CC(=O)Nc1ccc([As](=O)(O)O)cc1`: inactive: 6.19%; for `CCCC1OP(N)(=O)OCC1CC` (configuration not stated): inactive: 2.63%. The same measure for `Nc1cccc2ccc([As](=O)(O)O)cc12`: inactive: 3.73%. With `CN(C(=O)Cc1ccccc1)C1CC[C@@]2(CCCO2)C[C@@H]1N1CCCC1` (some centres not stated) the figure was inactive: -2.21%.

For `CCN(N=Nc1nonc1N)c1nonc1N`, the activation was inactive: 0.28%. The same measure for `O=C(Nc1cc([As](=O)(O)O)ccc1O)c1ccccc1`: inactive: 2.03%; for `O=P1(N(CCCl)CCCl)OCCCS1` (configuration not stated): inactive: -1.55%; for `O=C(O)CNc1ccc([As](=O)(O)O)cc1`: inactive: 4.28%. With `O=[N+]([O-])c1cccc(NC2=NCC(CBr)S2)c1` (configuration not stated) the figure was inactive: 1.67%; with `COC(=O)C1(C)COP(=O)(Nc2ccccc2)OC1` (configuration not stated), inactive: 2.72%.

As for `O=[N+]([O-])c1ncn(CCn2ncnc2[N+](=O)[O-])n1`, the activation is inactive: -0.15%. With `CC(C)(C)C(=O)NC(Sc1ccncn1)C(Cl)(Cl)Cl` (configuration not stated) the figure was inactive: 1.52%; with `Cc1ccc(NP(=O)(Oc2ccccc2)Oc2ccccc2)nc1`, inactive: -14.3%.

With `O=[N+]([O-])c1cc([N+](=O)[O-])c(CCNc2ccccc2)c([N+](=O)[O-])c1`, the activation was inactive: -5.16%.

Regarding `CCc1nc2c(n1)c1c(non1O)c1c2no[n+]1[O-]`, the activation was inactive: 11.3%. With `CC(=O)N1C2C3N(C(C)=O)C1C1N(C(C)=O)C(C(N1C(C)=O)N3C(C)=O)N2C(C)=O` the figure was inactive: 1.41%; with `O=[N+]([O-])c1cccc2n[nH]nc12`, inactive: 1.07%. The same measure for `COc1ccc(C2=NCC(CBr)S2)cc1` (configuration not stated): inactive: 2.54%; for `c1cc(-c2nn[nH]n2)ccc1-c1nn[nH]n1`: inactive: 0.84%; for `CC1CCN(C(=O)Oc2c(Cl)cc(Cl)c3cccnc23)CC1`: inactive: -1.75%. With `CC(C)=N/N=C(\N)N[N+](=O)[O-]` the figure was inactive: 4.73%. Take `CC(C)c1nc(Nc2ccccc2)n(P(=O)(N(C)C)N(C)C)n1`: the activation was inactive: -1.88%. `CN(C)C(=O)OCCc1n(C)cc[n+]1C`: the activation is inactive: 0.23%. The same measure for `CCN(/C(=N/P(=O)(N1CCOCC1)N1CCOCC1)N1CCOCC1)c1ccc(OC)cc1`: inactive: -1.04%; for `Nc1ccc([As](=O)(O)c2ccc(N)cc2)cc1`: inactive: -0.49%; for `C[N+]1=C2C=CC=CC=C2SC12C([N+](=O)[O-])=CC([N+](=O)[O-])=C[C-]2[N+](=O)[O-]` (configuration not stated): inactive: 4.7%.

Take `c1nnnn1CCn1cnnn1`: the activation is inactive: 2.31%.

`O=P(Nc1nccs1)(c1ccccc1)c1ccccc1`: the activation was inactive: -4.66%.

`CC(C)C(=O)NC(Sc1ccccc1)C(Cl)(Cl)Cl` (configuration not stated): the activation is inactive: -1.18%.

On to `O=P(Nc1nc2ccccc2s1)(c1ccccc1)c1ccccc1`, for which the activation is inactive: -9.6%. With `C[C@H]1OP(=O)(Oc2ccccc2)[C@H](O)[C@H](O)[C@H]1N=[N+]=[N-]` (some centres not stated) the figure was inactive: -2.47%. The same measure for `CN(C)C1(CNC(=O)c2ccc(Cl)c(S(N)(=O)=O)c2)CCCCC1`: inactive: 0.69%. With `O=P(Nc1ccccn1)(c1ccc(Br)cc1)c1ccc(Br)cc1` the figure was inactive: -27%; with `Nc1ccc(CCCCOc2ccccc2)cc1`, inactive: 3.66%. Regarding `COc1ccc(N)c([N+](=O)[O-])c1[N+](=O)[O-]`, the activation was inactive: 3.43%. Regarding `O=C(OC1CN2CCC1CC2)c1cccc(Cl)c1` (configuration not stated), the activation is inactive: 6.8%. With `C/C(N)=N\P(=O)(OCc1ccccc1)OCc1ccccc1` the figure was inactive: -0.61%; with `Nc1ccc([As](=O)(O)c2ccc([N+](=O)[O-])cc2)cc1`, inactive: 0.73%; with `C(Cc1nn[nH]n1)Cc1nn[nH]n1`, inactive: 3.55%. Take `O=[As](O)(c1ccccc1)c1ccc(O)cc1`: the activation was inactive: -0.65%. The same measure for `O=[N+]([O-])c1ncn(CCn2cnc([N+](=O)[O-])n2)n1`: inactive: -0.1%.

For `CC(=O)NC(SC(=S)N(C)C)C(Cl)(Cl)Cl` (configuration not stated), the activation was inactive: -3.54%. The same measure for `O=P1(N(CCCl)CCCl)OCCC2CCCCN21` (configuration not stated): inactive: -0.35%; for `c1ccc(-c2nn[nH]n2)c(-c2nn[nH]n2)c1`: inactive: 0.25%; for `Cc1ccc(NP(=O)(Oc2cccc(C)c2)Oc2cccc(C)c2)nc1`: inactive: -1.3%. The same measure for `O=C(NC1CCS(=O)(=O)C1)NP(=S)(Oc1ccccc1)Oc1ccccc1` (configuration not stated): inactive: -0.02%.

Consider `CCNC(=S)/N=C(\N)N[N+](=O)[O-]`, for which the activation is inactive: 1.55%. The same measure for `Cc1ccccc1OP(=O)(Nc1ccccn1)Oc1ccccc1C`: inactive: -8.3%; for `CC(NC(=O)COC(=O)C(O)(c1ccccc1)c1ccccc1)c1ccccc1` (configuration not stated): inactive: -2.67%. With `CN(C)C(=O)Oc1noc2ccccc12` the figure was inactive: 2.73%; with `O=c1c2cc([N+](=O)[O-])ccc2[nH]c2c([N+](=O)[O-])cc([N+](=O)[O-])cc12`, inactive: 16.6%. The same measure for `O=C(OC1CN2CCC1CC2)c1ccccc1` (configuration not stated): inactive: 5.73%; for `CCC(=O)N1C2C3N(C(=O)CC)C1C1N(C(=O)CC)C(C(N1C(=O)CC)N3C(=O)CC)N2C(=O)CC`: inactive: 1.33%. For the molecule `COC(=O)c1cc2c(s1)N=C(c1ccccc1)N(C)P2(=O)N1CCOCC1` (configuration not stated), the activation is inactive: 9.12%. With `Cc1ccc(OP(=O)(Nc2ccccn2)Oc2ccc(C)cc2)cc1` the figure was inactive: -4.87%. The same measure for `CC(=O)NC(SC(=S)N(CC(C)C)CC(C)C)C(Cl)(Cl)Cl` (configuration not stated): inactive: -17.2%; for `CC(C)(C)C(=O)NC(Sc1ccccc1)C(Cl)(Cl)Cl` (configuration not stated): inactive: -0.91%; for `CCc1cc(O)c([N+](=O)[O-])c(C)c1[N+](=O)[O-]`: inactive: -0.32%.

Turning to `O=P1(Nc2nc3ccc(Cl)cc3s2)COc2ccccc2O1` (configuration not stated), the activation was inactive: 0.17%. With `CCOc1ccc(C2=NCC(CBr)S2)cc1` (configuration not stated) the figure was inactive: 2.16%; with `CC(=O)Nc1ccc([As](=O)(O)O)c(O)c1`, inactive: 2.46%; with `CC(=O)Nc1ccc(Oc2c([N+](=O)[O-])cc([N+](=O)[O-])cc2[N+](=O)[O-])cc1`, inactive: 3.46%. With `Cc1ccccc1CN(C)C(=O)COC(=O)C(O)(c1ccccc1)c1ccccc1` the figure was inactive: -1.28%; with `C[C@@H]1C=CCP(=O)(Oc2ccccc2)O1` (some centres not stated), inactive: 0.7%.

On to `C[C@H]1OP(=O)(Oc2ccccc2)C[C@@H]2O[C@@H]21` (some centres not stated), for which the activation was inactive: 5.48%.

Regarding `N#C/C(=C\c1ccc(N(CCBr)CCBr)cc1)C(N)=O`, the activation was inactive: -2.01%. The same measure for `CC(=O)c1ccc(N2CC2c2ccncc2)cc1` (configuration not stated): inactive: 2.65%; for `COC(=O)C1(C)COP(=O)(NCc2ccccc2)OC1` (configuration not stated): inactive: 1.07%; for `O=[As](O)(c1cccc(O)c1)c1cccc(O)c1`: inactive: 0.52%. As to `Cc1cccc(OCC(=O)OC2CN3CCC2CC3)c1` (configuration not stated), the activation is inactive: -0.05%. The same measure for `O=C(OC1CN2CCC1CC2)c1ccc(Cl)cc1` (configuration not stated): inactive: 10.1%.

On to `COc1cc(C(=O)NCC2(N3CCOCC3)CCCCC2)cc(Cl)c1OC(C)C`, for which the activation was inactive: -2%. The same measure for `O=[As](O)(O)c1cccnc1`: inactive: 2.23%; for `CS(=O)(=O)c1ccc(Cl)c(NC(=O)COC(=O)C(O)(c2ccccc2)c2ccccc2)c1`: inactive: -5.78%; for `COc1cc(C2NCCC3(OCCO3)C2(C)C)cc(OC)c1OC` (configuration not stated): inactive: 2.5%. With `CCOP(=O)(Nc1cccc2ccccc12)OCC` the figure was inactive: 3.05%; with `Nc1cccc2c([As](=O)(O)O)cccc12`, inactive: 1.57%; with `Cc1ccc(NCCc2c([N+](=O)[O-])cc([N+](=O)[O-])cc2[N+](=O)[O-])cc1`, inactive: -2.72%. The same measure for `CCCOP(=S)(Nc1nc(N)cc(=O)[nH]1)OCCC`: inactive: -8.1%; for `O=C(O)COc1ccc([As](=O)(O)O)cc1[N+](=O)[O-]`: inactive: 2.7%; for `Nc1ccccc1[As](=O)(O)c1ccccc1`: inactive: -1.09%. As for `CCOP1(=S)c2c(C)nn(CCC#N)c2N=C(c2ccccc2F)N1C` (configuration not stated), the activation was inactive: 1.58%. `O=P(Nc1nccs1)(Oc1ccccc1)Oc1ccccc1`: the activation is inactive: -6.1%.
